Drawing on patent US7781436B2 (Hoffmann-La Roche Inc., priority 2005, dated 2010), this text covers Ki for one compound.

Chains of the proteins cited; added tags and fusions are not shown.
UniProt P37288, whole entry: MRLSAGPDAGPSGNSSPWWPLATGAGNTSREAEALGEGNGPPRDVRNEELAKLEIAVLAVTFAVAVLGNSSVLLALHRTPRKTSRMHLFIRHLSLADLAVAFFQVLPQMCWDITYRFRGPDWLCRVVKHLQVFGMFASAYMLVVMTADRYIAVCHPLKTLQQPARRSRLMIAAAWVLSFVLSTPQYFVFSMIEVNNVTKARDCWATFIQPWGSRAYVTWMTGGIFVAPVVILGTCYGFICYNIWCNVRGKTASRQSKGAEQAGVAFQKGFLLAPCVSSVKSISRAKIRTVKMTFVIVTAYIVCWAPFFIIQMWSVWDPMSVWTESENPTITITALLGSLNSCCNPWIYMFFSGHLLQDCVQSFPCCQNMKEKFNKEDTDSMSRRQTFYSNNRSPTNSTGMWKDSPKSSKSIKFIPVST

In the assay the target is human V1a receptor (Homo sapiens, UniProt P37288). Briefly: human V1a receptor binding (3H-Vasopressin SPA, membranes of transfected HEK293 cells). The conditions noted are these: displacement of 4 nM 3H-Vasopressin, HEK293 cell membranes, Ki by Cheng-Prussoff from IC50. The procedure: The human V1a receptor was cloned by RT-PCR from total human liver RNA. The coding sequence was subcloned in an expression vector after sequencing to confirm the identity of the amplified sequence. […] Cell membranes were prepared from HEK293 cells transiently transfected with the expression vector and grown in 20 liter fermenters with the following protocol.
50 g of cells are resuspended in 30 ml freshly prepared ice cold Lysis buffer (50 mM HEPES, 1 mM EDTA, 10 mM MgCl2 adjusted to pH=7.4+ complete cocktail of protease inhibitor (Roche Diagnostics)). Homogenized with Polytron for 1 min and sonicated on ice for 2×2 minutes at 80% intensity (Vibracell sonicator). The preparation is centrifuged 20 min at 500 g at 4° C., the pellet is discarded and the supernatant centrifuged 1 hour at 43,000 g at 4° C. (19'000 rpm). The pellet is resuspended in 12.5 ml Lysis buffer+12.5 ml Sucrose 20% and homogenized using a Polytron for 1-2 min. The protein concentration is determined by the Bradford method, and aliquots are stored at −80° C. until use. […] The plate is incubated 1 h at room temperature, centrifuged 1 min at 1000 g and counted on a Packard Top-Count. […] To calculate an IC 50 the curve is fitted using a non-linear regression model (XLfit) and the Ki is calculated using the Cheng-Prussoff equation.

Each structure is given as a SMILES string.

The Ki is a dissociation constant, usually derived from enzyme kinetics or from competition with a known ligand. On to `COc1cccc(OC)c1C1CCN(C(=O)c2cn(Cc3ccc(Cl)nc3)c3cc(Cl)ccc23)CC1`, for which the Ki was found to be 7 nM.
